Assay results published in US9682983B2, “BMP inhibitors and methods of use thereof” (THE BRIGHAM AND WOMEN'S HOSPITAL, INC., priority 2013, dated 2017).

Protein sequences, listed by entry. Tags and fused reporters are not part of them. Residues count along the entry.
UniProt Q04771, 21-509: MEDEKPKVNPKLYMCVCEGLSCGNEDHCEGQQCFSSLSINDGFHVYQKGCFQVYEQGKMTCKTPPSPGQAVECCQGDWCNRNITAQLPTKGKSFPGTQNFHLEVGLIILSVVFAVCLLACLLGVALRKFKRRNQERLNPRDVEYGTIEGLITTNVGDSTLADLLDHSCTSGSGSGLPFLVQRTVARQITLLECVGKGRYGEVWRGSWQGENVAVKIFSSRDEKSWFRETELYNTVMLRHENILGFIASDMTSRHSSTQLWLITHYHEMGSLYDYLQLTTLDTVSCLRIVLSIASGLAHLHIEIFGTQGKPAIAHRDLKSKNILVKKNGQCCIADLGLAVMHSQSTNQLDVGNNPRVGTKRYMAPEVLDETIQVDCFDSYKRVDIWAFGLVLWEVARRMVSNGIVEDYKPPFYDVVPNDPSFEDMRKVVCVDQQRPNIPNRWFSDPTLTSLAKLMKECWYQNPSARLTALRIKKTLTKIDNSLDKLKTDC

Target: human ALK2 (Homo sapiens (Human), UniProt Q04771)
Experiment: LANCE Ultra ULight enzymatic assay (FOP Enzymatic Assay), ALK2
Type: biochemical
Details: 10 μM ATP

Q: Which IC50 does the source give for [2H]c1ccc2c(-c3cnn4cc(-c5ccc(OCCN6CCN(C)CC6)cn5)cnc34)cccc2n1 [Compound 51, 5-(6-(5-(2-(4-methylpiperazin-1-yl)ethoxy)pyridin-2-yl)pyrazolo[1,5-a]pyrimidin-3-yl)-2-^2H-quinoline] here?
A: Its IC50 is 0.151 µM.
